# Measured values reported in US12525646B2, “Ionic cyclic nitroxyl radical oligomers” (Wisconsin Alumni Research Foundation, priority 2021, dated 2026).
# Experiment: Electrochemical impedance spectroscopy (PEIS), Z-fitting to ideal Randle equivalent circuit
# Type: physicochemical
# Settings: PEIS Z-fit
# Description: The mono-cation dimers (N+TEMPOD and Eth-N+TEMPOD) and the two di-cation dimers (N+N+TEMPOD and Eth-DABCO-TEMPOD) were further characterized. […] A negative correlation was found between electron transfer rate constant (k^0) and molecular size for these dimers, but no trend was found with 4-position functionalization.
compound,measurement,value
CC1(C)CC([N+](C)(C)C2CC(C)(C)N([O])C(C)(C)C2)CC(C)(C)N1[O] [i-TEMPOD-1],W1 (σ),246
